Assay results published in patent publication US11407768B2, “AMPK activators” (Kallyope, Inc., priority 2020, dated 2022).
pEC50: −log10 of the molar value.

Amino acid sequences for entries named in this document (tags omitted). A change or cut given only in a name is not applied to a line headed by its entry.
UniProt Q13131: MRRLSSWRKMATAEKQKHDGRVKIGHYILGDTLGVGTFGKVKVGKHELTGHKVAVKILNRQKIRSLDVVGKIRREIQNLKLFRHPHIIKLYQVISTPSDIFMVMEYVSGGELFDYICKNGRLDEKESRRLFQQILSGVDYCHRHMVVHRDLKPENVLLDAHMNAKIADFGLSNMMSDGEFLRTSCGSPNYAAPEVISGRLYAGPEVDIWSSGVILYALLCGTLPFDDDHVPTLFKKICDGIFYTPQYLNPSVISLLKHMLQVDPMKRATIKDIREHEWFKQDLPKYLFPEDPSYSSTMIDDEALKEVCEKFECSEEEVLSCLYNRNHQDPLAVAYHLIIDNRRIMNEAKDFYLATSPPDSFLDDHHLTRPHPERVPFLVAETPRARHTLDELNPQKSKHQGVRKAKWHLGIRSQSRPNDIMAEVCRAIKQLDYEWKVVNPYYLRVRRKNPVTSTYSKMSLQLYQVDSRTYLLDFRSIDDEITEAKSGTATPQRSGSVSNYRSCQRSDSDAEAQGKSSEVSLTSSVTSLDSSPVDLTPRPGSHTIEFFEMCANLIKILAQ
UniProt Q9Y478: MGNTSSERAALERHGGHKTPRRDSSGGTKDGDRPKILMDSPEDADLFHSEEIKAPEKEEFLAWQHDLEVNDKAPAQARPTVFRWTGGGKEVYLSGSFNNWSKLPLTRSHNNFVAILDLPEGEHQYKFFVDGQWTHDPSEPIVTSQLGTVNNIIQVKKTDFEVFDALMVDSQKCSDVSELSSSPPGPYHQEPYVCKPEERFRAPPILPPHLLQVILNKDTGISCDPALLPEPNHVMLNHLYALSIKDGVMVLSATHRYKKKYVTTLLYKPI

Molecular target: Recombinant AMPK α1/β1/γ1 complex (Homo sapiens (Human), UniProt Q13131+Q9Y478)
Experiment: In vitro pAMPK1 kinase activation assay (ADP-Glo, SAMS peptide)
Type: biochemical
Settings: AMPK α1/β1/γ1 pre-activated with CAMKK2; 12-point curve; 15 min compound incubation

pEC50: 9.40
Compound: O=C(NCCNc1cccc2c(S(=O)(=O)O)cccc12)c1ccc(-c2ccc(-c3nc4nc(O[C@@H]5CO[C@H]6[C@@H]5OC[C@H]6O)[nH]c4cc3Cl)cc2)cc1 [Compound 10]
